## AlphaSeq binding of Ab-95 light chain variants to a spike HR2 peptide

Values reported by Engelhart et al. 2022, doi:10.1038/s41597-022-01779-4 (FLAb copy).

Target: peptide PDVDLGDISGINAS, taken from heptad repeat 2 (HR2) of SARS-CoV-2 spike.

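The starting antibody came from a phage panning campaign against this peptide. AAYL52 was designed without a model: most single CDR substitutions and a random sample of double and triple ones. The scFvs were displayed on barcoded MATa yeast, the peptide on MATalpha yeast. After mating in shaken culture at 30 °C for 16 h, diploids were selected and their barcode pairs sequenced. Each replicate has its own calibration line, from reference interactions of the BCL2 family. The assay was run in three technical replicates.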

Parent: Ab-95, a human scFv built as VH, the linker GGGGSGGGGSGGGGS, VL. Only the CDRs of the light chain vary.
VH: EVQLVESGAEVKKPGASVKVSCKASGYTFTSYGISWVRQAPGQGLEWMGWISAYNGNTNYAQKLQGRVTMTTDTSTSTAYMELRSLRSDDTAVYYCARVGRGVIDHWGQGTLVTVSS
VL: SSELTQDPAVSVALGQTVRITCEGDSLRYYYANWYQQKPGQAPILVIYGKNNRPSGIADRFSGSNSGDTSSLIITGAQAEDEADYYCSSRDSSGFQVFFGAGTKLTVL

Each variant is given by its three light chain CDRs, as the data file delimits them; those of the parent are EGDSLRYYYAN, GKNNRPS, SSRDSSGFQVF. All variants listed here change S55 of the VL, counted from its first residue. Values are apparent Kd, the geometric mean of the replicates that gave a signal; lower means stronger binding. Where no diploid with the target was found in any replicate, the entry reads "no signal": below detection, most likely a poor binder, though not proof of it. For reference, the parent read 200 nM as the reference entry and 180 nM as a member of this library. Three control strains display no target. For library AAYL52, 28% of the pairings with them gave a signal, with a median of 8.2 µM and one signal in twenty below 800 nM, so weak values seen in few replicates may be background. Also given: how often the same scFv was detected with the empty control strains.

| CDR-L1 | CDR-L2 | CDR-L3 | apparent Kd | detected | control signals |
|---|---|---|---|---|---|
| EGDSLRYYYEN | GKNNRPD | SSRDSSGFQVV | 160 µM | 2/3 | 4/9 |
| EGDSLKYYYHN | GKNNRPT | SSRDSSGFQVF | 3.2 µM | 1/3 | 2/9 |
| EGDSLRYEYAN | GKNNYPH | SSRDSSGFQVF | 640 nM | 3/3 | 4/9 |
| EGDSLRYYYAN | GKNNRDM | SSRDSQGFQVF | 16 µM | 2/3 | 3/9 |
| EGDQLRYYYAN | GENNRPP | SSRDSSGFQVF | 650 nM | 3/3 | 3/9 |
| EGDSLRYYYAN | GKNNRPA | SSRMCSGFQVF | 76 nM | 3/3 | 5/9 |
| EEDSLRYYYAN | GKNNDPD | SSRDSSGFQVF | 86 µM | 2/3 | 1/9 |
| EGDSLRYYYAN | GKNYRPP | SSRDISGFQVF | 8.8 µM | 2/3 | 1/9 |
| IGDSWRYYYAN | GKNNRPE | SSRDSSGFQVF | 7.4 µM | 2/3 | 2/9 |
| EGDSLGYYYAN | GKNNRPH | SSRDSSGCQVF | 830 nM | 3/3 | 5/9 |
| NGDSLRYYYAN | GKNNRPQ | SSRSSSGFQVF | 120 nM | 3/3 | 4/9 |
| EGDSLRYYYAN | GKNNRPK | SSRGSTGFQVF | 11 µM | 2/3 | 2/9 |
| EGDSLRYYVKN | GKNNRPC | SSRDSSGFQVF | 7.0 µM | 1/3 | 4/9 |
| GGDSLRYYYAN | GKNNRPL | SSRTSSGFQVF | 650 nM | 3/3 | 6/9 |
| EGDSLRYYYAP | GKNNRPH | SSRDSSSFQVF | 38 µM | 1/3 | 3/9 |
| EGDSLRYYYAN | GKNNRPE | SSRPSSGFGVF | 3.2 µM | 2/3 | 0/9 |
| CFDSLRYYYAN | GKNNRPP | SSRDSSGFQVF | 3.8 µM | 3/3 | 2/9 |
| EGDSRRYYGAN | GKNNRPL | SSRDSSGFQVF | 640 nM | 3/3 | 1/9 |
| EGDSLRYYRAN | GKNNQPL | SSRDSSGFQVF | 10 µM | 2/3 | 3/9 |
| EGDSLIYYYAN | EKNNRPW | SSRDSSGFQVF | 2.2 µM | 2/3 | 0/9 |
| EGDSLRYYYAN | GKNNRPV | SSRDKSGFQQF | 130 nM | 3/3 | 1/9 |
| EGDSLRYYYAN | GKNNRPY | PSFDSSGFQVF | 6.7 µM | 3/3 | 2/9 |
| EGDSLRYYYAN | GMNNRPE | KSRDSSGFQVF | 500 nM | 1/3 | 3/9 |
| RGDSLRYYYAT | GKNNRPE | SSRDSSGFQVF | 440 nM | 2/3 | 2/9 |
| EGDSLRYVYAN | GKNNRPE | SSRPSSGFQVF | 520 nM | 3/3 | 0/9 |
| HGDMLRYYYAN | GKNNRPD | SSRDSSGFQVF | 240 nM | 3/3 | 5/9 |
| EGDSLRVYYAN | GKNFRPL | SSRDSSGFQVF | 300 µM | 1/3 | 1/9 |
| EGDSLRYHYAN | GKPNRPV | SSRDSSGFQVF | 6.9 µM | 3/3 | 2/9 |
| EGDSTRYAYAN | GKNNRPC | SSRDSSGFQVF | 600 nM | 3/3 | 2/9 |
| EGDSLRYYYAE | GKNNRPK | SIRDSSGFQVF | no signal | 0/3 | 2/9 |
| EGDSLRQYYAN | GKNNRPW | SSRDSSGDQVF | 420 nM | 3/3 | 5/9 |
| EGDSLRYYYAN | GKNNRFT | SSRDSSGFQEF | 2.1 µM | 2/3 | 5/9 |
| EGDSLRYRYAN | GKNNRHN | SSRDSSGFQVF | 140 nM | 3/3 | 3/9 |
| EGDSFRYYYAN | GKNNRPH | SCRDSSGFQVF | 460 nM | 3/3 | 2/9 |
| EGDSLRYYYAN | GKNNRPQ | SDRDSSGFQWF | no signal | 0/3 | 1/9 |
| EGDSLHYKYAN | GKNNRPI | SSRDSSGFQVF | 18 nM | 3/3 | 2/9 |
| EGDSLRYYYAN | GKNNEPK | SSRDSAGFQVF | no signal | 0/3 | 1/9 |
| EGVSLRYMYAN | GKNNRPL | SSRDSSGFQVF | 120 nM | 3/3 | 1/9 |
| EGDSLRYYYSN | GKNNRPE | SSDDSSGFQVF | 190 nM | 3/3 | 2/9 |
| EGDTLRYYYAN | GKNNRPI | SSRDSSGVQVF | 2.0 µM | 3/3 | 6/9 |
| EGDSLRYYYAN | GKNNRMY | SSRDSSGFQVF | 1.3 µM | 3/3 | 3/9 |
| EGDSLRYYYAN | GKNNRPI | SSRDSSGRQFF | 5.0 µM | 2/3 | 3/9 |
| EGDSLRYYYAN | GKHNRPN | DSRDSSGFQVF | 2.7 µM | 1/3 | 1/9 |
| EGDSLRYYYAN | GKNNRPH | TCRDSSGFQVF | 7.4 µM | 3/3 | 3/9 |
| EGDSLRYYYAN | GKNNRPT | KSRDSSGFHVF | 6.3 µM | 2/3 | 3/9 |
| EGKSLRYYYAN | GNNNRPI | SSRDSSGFQVF | 280 nM | 3/3 | 3/9 |
| EGDSARYYYAN | GKNNRPP | SSRDMSGFQVF | 18 µM | 3/3 | 5/9 |
| EGASLRYYYAN | GKNNSPI | SSRDSSGFQVF | 150 nM | 3/3 | 4/9 |
| EGDSLRYYYAN | EKNNPPV | SSRDSSGFQVF | 240 µM | 1/3 | 3/9 |
| EGDSLRYYYAN | TRNNRPR | SSRDSSGFQVF | 28 µM | 1/3 | 4/9 |
| EGDSLRYYYKN | GKNNRPQ | SSRDSSGFRVF | 3.9 µM | 2/3 | 2/9 |
| EGDSLRYYKAN | GKNNRPE | SSRHSSGFQVF | 2.3 µM | 3/3 | 4/9 |
| EGDSLRYYYPN | GKNNRPY | SSRDSSLFQVF | 4.3 µM | 1/3 | 0/9 |
| EGDSLRYAYAN | GKRNRPM | SSRDSSGFQVF | 150 nM | 3/3 | 4/9 |
| EGDSLRYYYAN | GKNNRKC | SSRDSSGFQVF | 2.1 µM | 3/3 | 3/9 |
| EGSSLRYYYAN | GKNNRPR | SSRDSSGFQVF | 120 nM | 3/3 | 4/9 |
| NGDSLCYYYAN | GKNNRPI | SSRDSSGFQVF | 2.5 µM | 3/3 | 3/9 |

Repeated from above, the 7 best binders with a signal in all replicates:

| CDR-L1 | CDR-L2 | CDR-L3 | apparent Kd | detected | control signals |
|---|---|---|---|---|---|
| EGDSLHYKYAN | GKNNRPI | SSRDSSGFQVF | 18 nM | 3/3 | 2/9 |
| EGDSLRYYYAN | GKNNRPA | SSRMCSGFQVF | 76 nM | 3/3 | 5/9 |
| NGDSLRYYYAN | GKNNRPQ | SSRSSSGFQVF | 120 nM | 3/3 | 4/9 |
| EGSSLRYYYAN | GKNNRPR | SSRDSSGFQVF | 120 nM | 3/3 | 4/9 |
| EGVSLRYMYAN | GKNNRPL | SSRDSSGFQVF | 120 nM | 3/3 | 1/9 |
| EGDSLRYYYAN | GKNNRPV | SSRDKSGFQQF | 130 nM | 3/3 | 1/9 |
| EGDSLRYRYAN | GKNNRHN | SSRDSSGFQVF | 140 nM | 3/3 | 3/9 |